Binding of CDR-mutated scFvs to a peptide of the spike HR2 region

From the AlphaSeq antibody data of Engelhart et al. 2022 (doi:10.1038/s41597-022-01779-4), copy in the FLAb collection.

Binding partner: SARS-CoV-2 spike HR2 peptide, sequence PDVDLGDISGINAS.

Parent scFv Ab-14: VH joined to VL by the linker GGGGSGGGGSGGGGS. Changes lie in the light chain CDRs alone.
VH: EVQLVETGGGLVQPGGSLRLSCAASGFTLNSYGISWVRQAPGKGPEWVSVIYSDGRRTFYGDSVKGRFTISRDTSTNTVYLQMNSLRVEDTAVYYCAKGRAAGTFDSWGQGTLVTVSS
VL: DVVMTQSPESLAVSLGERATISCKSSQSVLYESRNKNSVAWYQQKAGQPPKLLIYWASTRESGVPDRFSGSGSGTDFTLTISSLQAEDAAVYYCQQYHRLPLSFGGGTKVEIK

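The parent was found by panning a naive human phage display library on the peptide. The library (AAYL50) carries one to three amino acid substitutions per variant, with no insertions or deletions. The scFvs were displayed on barcoded MATa yeast, the peptide on MATalpha yeast. Binding brings cells together so that they mate, and sequencing counts the barcode pairs among the diploids. Read counts were normalised to the haploid input and turned into Kd by a linear fit to BCL2-family pairs of known affinity, for each replicate. The assay was run in three technical replicates.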

Substitutions are numbered in sequence along the VL above, starting at 1 (not Kabat).
All variants listed here change R60 of the VL, counted from its first residue.
Numbers give log10(Kd / nM), so 0 is 1 nM and 3 is 1 µM. Smaller is tighter.
"nd" marks a missing value. The strain was present, yet no cells mated with the target were sequenced in that replicate, which points to weak or no binding.
Three control strains display no target. For library AAYL50, 18% of the pairings with them gave a signal, with a median of 4.19 and one signal in twenty below 2.99, so weak values seen in few replicates may be background.

Variant T59L R60I P101T gave nd, nd, nd.
Variant Q27C R60M H98Q gave nd, nd, nd.
Variant V39C R60M Q95V gave nd, 4.68, nd.
Variant K36W R60W Y97N gave nd, nd, nd.
Variant N37H R60H Y97K gave nd, nd, nd.
Variant S28P N35T R60P gave 2.69, 2.78, 3.51.
Variant R60P S62V H98P gave nd, nd, nd.
Variant S28T R60K P101H gave 1.05, 1.38, 1.67.
Variant S38W R60K Y97C gave nd, nd, nd.
Variant K24D R60I S103R gave nd, nd, 1.48.
Variant R60N S62P R99K gave nd, 2.25, nd.
Variant R34V V39H R60P gave nd, 3.63, nd.
Variant S25M R34H R60Q gave 1.04, 1.11, 1.21.
Variant N35V R60C gave nd, nd, nd.
Variant L30N R60H gave 2.14, nd, nd.
Variant S28W R60E S103C gave nd, nd, nd.
Variant R60F Q96H H98G gave nd, nd, nd.
Variant A40Y R60N Q96E gave nd, 4.21, 4.23.
Variant L30Q N37S R60L gave 1.80, 1.77, 1.83.
Variant S25G R60W E61C gave nd, nd, 4.96.
Variant W56G T59G R60D gave nd, nd, nd.
Variant K24S V29Y R60F gave nd, nd, nd.
Variant R60D Q96H L102Q gave 5.03, nd, nd.
Variant S28F R60G L102E gave nd, nd, nd.
Variant N35A R60G H98I gave nd, nd, nd.
Variant S25N R60A gave nd, nd, nd.
Variant V39Y R60W R99Y gave nd, nd, 3.91.
Variant S38Y V39Y R60A gave nd, 4.10, nd.
Variant V39Y W56V R60C gave nd, nd, nd.
Variant R60V S62M P101Q gave 2.79, 2.62, 2.68.
Variant S26L R60N Q96L gave nd, nd, nd.

Top 4 of the variants detected in all replicates, tightest first:

{"changes": "S25M R34H R60Q", "log10 Kd (nM) by replicate": "1.04, 1.11, 1.21"}
{"changes": "S28T R60K P101H", "log10 Kd (nM) by replicate": "1.05, 1.38, 1.67"}
{"changes": "L30Q N37S R60L", "log10 Kd (nM) by replicate": "1.80, 1.77, 1.83"}
{"changes": "R60V S62M P101Q", "log10 Kd (nM) by replicate": "2.79, 2.62, 2.68"}